Experimental findings from PMC11312515, “Biochemical and Structural Characterization of a Novel Psychrophilic Laccase (Multicopper Oxidase) Discovered from Oenococcus oeni 229 (ENOLAB 4002)” (International Journal of Molecular Sciences, 2024) are described below.

Substrate in the data set: CCn1c(=NN=c2sc3cc(S(=O)(=O)O)ccc3n2CC)sc2cc(S(=O)(=O)O)ccc21
Kind of data set: purified protein. To be noted: McIlvaine buffer pH 2.5, 24 °C, sigmoidal kinetics.

B1: LcOe 229 (Oenococcus oeni PSU-1) (protein)
chain: MELIKNYFFDEGAYDYHDGAYKHLIRPKTKTHKLIIPKVLKADKIEGNTTYYTIHAQEGETNILDGKATHTWGYNGSLLGPLIRYQSGRHYHLTLVNDLPEVTTWHWHGLNIPGPIEDGGPHAPVLPGKSREIEFDVNQPTMTAWLHPHPCPHTAEQVWKGLAAPVAVVNPLDDLPQLPHTWGVDDIPLIFQDRTFHDSQWDYQADYDMDGTLGDTALVNGTVNAEFTVTRPCLRLRVLNGANRRELRLNSDQNIVMTQIASDGGFLPHAVEMTKIMLTNAERAEILLDFSDYKKGGRIVLKADDVPILTLKVGEFTEDNRRQLPKTLKQIERDFTGSPSHQVIMEGMDDSVRINGKLYDMTRIDDRQEIGKNEIWDVSNTNDSMPGMGMIHPFHMHGTEFLVLSRNGKKPYPNEFGFKDTVAVNPGEHVKLLVKFNVPGIFMYHCHILEHEDTGMMAQIEAVDPNNPQHWNLKDLCDKNMPDSNMRM
notes: full length, 488 residues, 55544 Da, in pET-28a(+) NheI/BamHI, N-terminal His tag (thrombin-cleavable; cleavage told for crystallography), E. coli BL21(DE3)/pGro7; Ni-NTA; monomer; PCR fragment given as 1641 bp
As for B1, the K0.5 is recorded as 0.07 (±0.00) mM, the Vmax came to 12.1 µmol/min/mg, the kcat amounted to 11.2 s⁻¹ and the kcat/Km is 162000 M⁻¹ s⁻¹.
